Laboratory results taken from PubChem BioAssay (NCI).
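Method: 48-hour compound exposure of cells in 96-well plates, five concentrations, linear interpolation of endpoints. GI50 is the concentration that inhibits growth by half. Definition used: TGI = concentration required for complete inhibition of growth.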

Assays:
Assay in all cases: NCI tumour cell line growth inhibition, 48 h
SNB-75 CNS = tested on: SNB-75 CNS
IGROV1 ovarian = tested on: IGROV1 ovarian
MCF7 breast = tested on: MCF7 breast
MDA-MB-435 = tested on: MDA-MB-435
OVCAR-3 ovarian = tested on: OVCAR-3 ovarian
A549 NSCLC = tested on: A549 NSCLC
RXF 393 renal = tested on: RXF 393 renal
SK-OV-3 ovarian = tested on: SK-OV-3 ovarian
SW-620 colon = tested on: SW-620 colon
KM12 colon = tested on: KM12 colon
NCI-H226 lung = tested on: NCI-H226 lung
A498 renal = tested on: A498 renal
DU-145 prostate = tested on: DU-145 prostate
MALME-3M melanoma = tested on: MALME-3M melanoma
HS 578T breast = tested on: HS 578T breast
UACC-62 melanoma = tested on: UACC-62 melanoma
MDA-N = tested on: MDA-N
OVCAR-5 ovarian = tested on: OVCAR-5 ovarian
COLO 205 colon = tested on: COLO 205 colon
MOLT-4 leukemia = tested on: MOLT-4 leukemia
M14 melanoma = tested on: M14 melanoma
RPMI-8226 leukemia = tested on: RPMI-8226 leukemia
HL-60(TB) leukemia = tested on: HL-60(TB) leukemia
SNB-19 CNS = tested on: SNB-19 CNS
SF-268 CNS = tested on: SF-268 CNS
TK-10 renal = tested on: TK-10 renal
OVCAR-8 ovarian = tested on: OVCAR-8 ovarian
SF-295 CNS = tested on: SF-295 CNS
HT29 colon = tested on: HT29 colon
EKVX NSCLC = tested on: EKVX NSCLC
T-47D breast = tested on: T-47D breast
LOX IMVI melanoma = tested on: LOX IMVI melanoma
UACC-257 melanoma = tested on: UACC-257 melanoma
HOP-62 NSCLC = tested on: HOP-62 NSCLC
SF-539 CNS = tested on: SF-539 CNS
CAKI-1 renal = tested on: CAKI-1 renal
SN12C renal = tested on: SN12C renal
PC-3 prostate = tested on: PC-3 prostate
SK-MEL-28 melanoma = tested on: SK-MEL-28 melanoma
MDA-MB-231 breast = tested on: MDA-MB-231 breast
NCI-H522 lung = tested on: NCI-H522 lung
SK-MEL-2 melanoma = tested on: SK-MEL-2 melanoma
NCI-H460 lung = tested on: NCI-H460 lung
SK-MEL-5 melanoma = tested on: SK-MEL-5 melanoma
K-562 leukemia = tested on: K-562 leukemia
786-0 renal = tested on: 786-0 renal
HCT-15 colon = tested on: HCT-15 colon
NCI/ADR-RES ovarian = tested on: NCI/ADR-RES ovarian
NCI-H23 lung = tested on: NCI-H23 lung
ACHN renal = tested on: ACHN renal
OVCAR-4 ovarian = tested on: OVCAR-4 ovarian
UO-31 renal = tested on: UO-31 renal
HCT-116 colon = tested on: HCT-116 colon
CCRF-CEM leukemia = tested on: CCRF-CEM leukemia
NCI-H322M lung = tested on: NCI-H322M lung

`O=[N+]([O-])C1([N+](=O)[O-])CC2(Cc3c1no[n+]3[O-])OCCO2` was tested, and the GI50 (SNB-75 CNS) was 28.7 µM, the TGI (SNB-75 CNS) was 90.1 µM and the GI50 (IGROV1 ovarian) was 44.2 µM. The TGI (IGROV1 ovarian) was over 100 µM, the GI50 (MCF7 breast) was 25.1 µM and the TGI (MCF7 breast) was 82.5 µM. It also gave a GI50 (MDA-MB-435) of 16.5 µM, a TGI (MDA-MB-435) of 55.8 µM and a GI50 (OVCAR-3 ovarian) of 16.1 µM. The TGI (OVCAR-3 ovarian) was 41.1 µM, the GI50 (A549 NSCLC) was 21.2 µM and the TGI (A549 NSCLC) was 50.5 µM. It also gave a GI50 (RXF 393 renal) of 29.5 µM, a TGI (RXF 393 renal) of 93.2 µM and a GI50 (SK-OV-3 ovarian) of over 100 µM. The TGI (SK-OV-3 ovarian) was over 100 µM, the GI50 (SW-620 colon) was 19.4 µM and the TGI (SW-620 colon) was 38.9 µM. For the same compound, the GI50 (KM12 colon) was 8.92 µM, the TGI (KM12 colon) was 28.7 µM and the GI50 (NCI-H226 lung) was over 100 µM. The TGI (NCI-H226 lung) was over 100 µM, the GI50 (A498 renal) was 85.7 µM and the TGI (A498 renal) was over 100 µM. The GI50 (DU-145 prostate) was over 100 µM, the TGI (DU-145 prostate) was over 100 µM and the GI50 (MALME-3M melanoma) was 19 µM. For the same compound, the TGI (MALME-3M melanoma) was 35 µM, the GI50 (HS 578T breast) was 49.5 µM and the TGI (HS 578T breast) was over 100 µM. For the same compound, the GI50 (UACC-62 melanoma) was 38.8 µM, the TGI (UACC-62 melanoma) was over 100 µM and the GI50 (MDA-N) was 15.4 µM. For the same compound, the TGI (MDA-N) was over 100 µM, the GI50 (OVCAR-5 ovarian) was 45.4 µM and the TGI (OVCAR-5 ovarian) was over 100 µM. The GI50 (COLO 205 colon) was 9.48 µM, the TGI (COLO 205 colon) was 24.1 µM and the GI50 (MOLT-4 leukemia) was 29.1 µM. It also gave a TGI (MOLT-4 leukemia) of 71 µM, a GI50 (M14 melanoma) of 15.1 µM and a TGI (M14 melanoma) of 30.7 µM. It also gave a GI50 (RPMI-8226 leukemia) of 37.5 µM, a TGI (RPMI-8226 leukemia) of 87.2 µM and a GI50 (HL-60(TB) leukemia) of 29.7 µM. It also gave a TGI (HL-60(TB) leukemia) of 53.7 µM, a GI50 (SNB-19 CNS) of 90 µM and a TGI (SNB-19 CNS) of over 100 µM. It also gave a GI50 (SF-268 CNS) of 62.4 µM, a TGI (SF-268 CNS) of over 100 µM and a GI50 (TK-10 renal) of 23.2 µM. The TGI (TK-10 renal) was 64.5 µM, the GI50 (OVCAR-8 ovarian) was 21.1 µM and the TGI (OVCAR-8 ovarian) was over 100 µM. It also gave a GI50 (SF-295 CNS) of over 100 µM, a TGI (SF-295 CNS) of over 100 µM and a GI50 (HT29 colon) of 11.6 µM. The TGI (HT29 colon) was 39.2 µM, the GI50 (EKVX NSCLC) was 56.4 µM and the TGI (EKVX NSCLC) was over 100 µM. The GI50 (T-47D breast) was 15.4 µM, the TGI (T-47D breast) was over 100 µM and the GI50 (LOX IMVI melanoma) was 14.9 µM. For the same compound, the TGI (LOX IMVI melanoma) was 40.7 µM, the GI50 (UACC-257 melanoma) was 18.2 µM and the TGI (UACC-257 melanoma) was 40.3 µM. For the same compound, the GI50 (HOP-62 NSCLC) was 29.6 µM, the TGI (HOP-62 NSCLC) was 69.8 µM and the GI50 (SF-539 CNS) was 27.6 µM. It also gave a TGI (SF-539 CNS) of 54.7 µM, a GI50 (CAKI-1 renal) of 55.1 µM and a TGI (CAKI-1 renal) of over 100 µM. It also gave a GI50 (SN12C renal) of 45 µM, a TGI (SN12C renal) of over 100 µM and a GI50 (PC-3 prostate) of 32.8 µM. It also gave a TGI (PC-3 prostate) of over 100 µM, a GI50 (SK-MEL-28 melanoma) of 39.4 µM and a TGI (SK-MEL-28 melanoma) of over 100 µM. The GI50 (MDA-MB-231 breast) was 27.6 µM, the TGI (MDA-MB-231 breast) was 59.1 µM and the GI50 (NCI-H522 lung) was 29.1 µM. It also gave a TGI (NCI-H522 lung) of 82.7 µM, a GI50 (SK-MEL-2 melanoma) of 40.4 µM and a TGI (SK-MEL-2 melanoma) of over 100 µM. It also gave a GI50 (NCI-H460 lung) of 16.5 µM, a TGI (NCI-H460 lung) of 35.3 µM and a GI50 (SK-MEL-5 melanoma) of 31.5 µM. For the same compound, the TGI (SK-MEL-5 melanoma) was 59.5 µM, the GI50 (K-562 leukemia) was 37.8 µM and the TGI (K-562 leukemia) was over 100 µM. The GI50 (786-0 renal) was 35.7 µM, the TGI (786-0 renal) was over 100 µM and the GI50 (HCT-15 colon) was 25.3 µM. For the same compound, the TGI (HCT-15 colon) was 57.7 µM, the GI50 (NCI/ADR-RES ovarian) was 42.6 µM and the TGI (NCI/ADR-RES ovarian) was over 100 µM. For the same compound, the GI50 (NCI-H23 lung) was 27.8 µM, the TGI (NCI-H23 lung) was 66.9 µM and the GI50 (ACHN renal) was 42.1 µM. The TGI (ACHN renal) was over 100 µM, the GI50 (OVCAR-4 ovarian) was 20.4 µM and the TGI (OVCAR-4 ovarian) was 51.3 µM. The GI50 (UO-31 renal) was 18.6 µM, the TGI (UO-31 renal) was 38.6 µM and the GI50 (HCT-116 colon) was 20.1 µM. The TGI (HCT-116 colon) was 48.3 µM, the GI50 (CCRF-CEM leukemia) was 29.4 µM and the TGI (CCRF-CEM leukemia) was 81.4 µM. It also gave a GI50 (NCI-H322M lung) of 35 µM and a TGI (NCI-H322M lung) of over 100 µM.
